# BindingDB's records for doi:10.1002/1098-2396(20010101)39:1 (Nih, 2001)
# The chains behind the UniProt entries cited, without tags or fusion partners.
# UniProt P23977, whole entry: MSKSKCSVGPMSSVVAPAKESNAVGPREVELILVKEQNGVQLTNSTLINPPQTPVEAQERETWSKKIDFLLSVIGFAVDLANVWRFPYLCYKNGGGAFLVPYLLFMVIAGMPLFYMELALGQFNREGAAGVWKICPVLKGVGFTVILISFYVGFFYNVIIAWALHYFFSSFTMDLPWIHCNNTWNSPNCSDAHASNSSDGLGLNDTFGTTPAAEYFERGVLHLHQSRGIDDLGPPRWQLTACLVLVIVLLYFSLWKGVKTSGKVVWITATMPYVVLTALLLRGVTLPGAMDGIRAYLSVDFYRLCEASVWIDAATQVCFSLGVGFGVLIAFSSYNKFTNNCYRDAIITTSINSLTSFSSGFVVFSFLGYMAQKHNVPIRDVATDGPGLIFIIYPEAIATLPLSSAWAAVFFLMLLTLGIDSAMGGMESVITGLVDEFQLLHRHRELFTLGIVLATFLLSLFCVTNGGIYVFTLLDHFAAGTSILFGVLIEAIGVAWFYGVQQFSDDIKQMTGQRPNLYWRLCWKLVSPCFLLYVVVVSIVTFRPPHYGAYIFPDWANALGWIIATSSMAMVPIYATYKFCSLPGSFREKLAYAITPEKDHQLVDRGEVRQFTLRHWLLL
# UniProt P31652, whole entry: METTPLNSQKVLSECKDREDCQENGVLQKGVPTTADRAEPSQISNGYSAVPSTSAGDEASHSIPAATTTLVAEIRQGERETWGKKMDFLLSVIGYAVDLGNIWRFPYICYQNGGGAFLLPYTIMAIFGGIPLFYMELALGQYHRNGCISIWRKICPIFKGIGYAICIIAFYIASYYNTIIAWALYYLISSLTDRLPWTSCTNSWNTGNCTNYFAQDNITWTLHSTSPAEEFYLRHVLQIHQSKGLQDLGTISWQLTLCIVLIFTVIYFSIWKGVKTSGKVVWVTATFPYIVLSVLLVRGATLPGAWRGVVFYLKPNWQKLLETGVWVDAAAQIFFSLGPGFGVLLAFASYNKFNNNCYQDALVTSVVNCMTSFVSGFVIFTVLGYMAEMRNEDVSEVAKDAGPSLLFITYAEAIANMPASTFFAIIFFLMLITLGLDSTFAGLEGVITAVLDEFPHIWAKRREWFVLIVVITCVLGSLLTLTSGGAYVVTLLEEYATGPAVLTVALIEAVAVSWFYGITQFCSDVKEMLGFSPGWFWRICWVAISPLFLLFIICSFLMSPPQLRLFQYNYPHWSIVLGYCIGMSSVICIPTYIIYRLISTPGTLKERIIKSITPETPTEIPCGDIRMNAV
# Values joined by “and” are separate entries in the source; they are usually repeats but may differ in a detail not shown here. Identical values can stand only once. Counter-ions that a name gives are not always drawn.
# Key:
# [1] = molecular target: Sodium-dependent dopamine transporter (Rattus norvegicus, UniProt P23977)
# [2] = molecular target: Sodium-dependent serotonin transporter (Rattus norvegicus, UniProt P31652)
Compound,Ki [1],Ki [2]
CN(C)CCCC1(c2ccc(F)cc2)OCc2cc(C#N)ccc21 (configuration not stated) [CITALOPRAM HYDROBROMIDE],> 10 µM,–
CN[C@@H](C)Cc1ccccc1 [METHAMPHETAMINE (+)],–,2.14 µM and > 10 µM
